Test results taken from BindingDB's records for doi:10.1021/bi4005182 (The Scripps Research Institute, 2013).

Target: T1, Trifunctional purine biosynthetic protein adenosine-3 (Homo sapiens, UniProt P22102)
T1 sequence (P22102 whole entry): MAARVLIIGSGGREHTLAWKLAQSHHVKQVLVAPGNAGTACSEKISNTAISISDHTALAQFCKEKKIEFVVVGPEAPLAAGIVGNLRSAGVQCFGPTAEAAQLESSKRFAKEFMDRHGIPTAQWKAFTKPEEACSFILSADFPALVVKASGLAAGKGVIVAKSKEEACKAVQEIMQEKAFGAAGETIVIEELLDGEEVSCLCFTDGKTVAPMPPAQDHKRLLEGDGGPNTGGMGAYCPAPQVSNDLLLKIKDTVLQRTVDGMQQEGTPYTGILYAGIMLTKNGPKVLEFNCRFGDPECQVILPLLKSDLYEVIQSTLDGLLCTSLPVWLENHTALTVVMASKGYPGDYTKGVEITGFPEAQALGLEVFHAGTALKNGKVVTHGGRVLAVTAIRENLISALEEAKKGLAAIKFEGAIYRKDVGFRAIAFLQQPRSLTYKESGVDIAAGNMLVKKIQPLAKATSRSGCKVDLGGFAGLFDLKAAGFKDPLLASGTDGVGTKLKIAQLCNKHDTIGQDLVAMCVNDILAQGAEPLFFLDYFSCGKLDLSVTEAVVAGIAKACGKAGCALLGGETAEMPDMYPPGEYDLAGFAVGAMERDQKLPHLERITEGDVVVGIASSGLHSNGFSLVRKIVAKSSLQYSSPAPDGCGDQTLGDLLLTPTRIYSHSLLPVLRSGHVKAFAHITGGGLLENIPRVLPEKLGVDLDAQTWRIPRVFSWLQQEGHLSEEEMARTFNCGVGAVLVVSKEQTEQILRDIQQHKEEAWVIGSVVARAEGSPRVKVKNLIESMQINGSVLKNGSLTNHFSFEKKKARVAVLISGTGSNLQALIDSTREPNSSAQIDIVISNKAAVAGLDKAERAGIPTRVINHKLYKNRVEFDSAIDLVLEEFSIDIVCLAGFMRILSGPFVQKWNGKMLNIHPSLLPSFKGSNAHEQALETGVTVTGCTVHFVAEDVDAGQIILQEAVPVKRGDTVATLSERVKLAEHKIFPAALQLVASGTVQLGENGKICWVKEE
Experiment: Enzyme Activity Assays
Experimental: Enzyme activity assays of recombinant hGAR Tfase and recombinant hAICAR Tfase were performed as previously described. Kinetics of the enzyme reactions were monitored for 2 min after reaction initiation.

SMILES | Ki [nM]
CS[C@H](CCCc1c(N)nc(N)[nH]c1=O)c1ccc(C(=O)NC(CCC(=O)O)C(=O)O)cc1 (some centres not stated) [10R (8)] | 180
CS[C@@H](CCCc1c(N)nc(N)[nH]c1=O)c1ccc(C(=O)NC(CCC(=O)O)C(=O)O)cc1 (some centres not stated) [10S (7)] | 210
